Data from patent publication US20250367134A1, “PERIPHERALIZATION OF CENTRALLY-ACTING CANNABINOID-1 RECEPTOR ANTAGONISTS BY NANOPARTICLES FOR THE TREATMENT METABOLIC RELATED CONDITIONS” (Yissum Research Development Company of the Hebrew …, priority 2022, published 2025).
Counter-ions that a name gives are not always drawn.

Amino acid sequences for entries named in this document (tags omitted).
UniProt P47746, whole entry: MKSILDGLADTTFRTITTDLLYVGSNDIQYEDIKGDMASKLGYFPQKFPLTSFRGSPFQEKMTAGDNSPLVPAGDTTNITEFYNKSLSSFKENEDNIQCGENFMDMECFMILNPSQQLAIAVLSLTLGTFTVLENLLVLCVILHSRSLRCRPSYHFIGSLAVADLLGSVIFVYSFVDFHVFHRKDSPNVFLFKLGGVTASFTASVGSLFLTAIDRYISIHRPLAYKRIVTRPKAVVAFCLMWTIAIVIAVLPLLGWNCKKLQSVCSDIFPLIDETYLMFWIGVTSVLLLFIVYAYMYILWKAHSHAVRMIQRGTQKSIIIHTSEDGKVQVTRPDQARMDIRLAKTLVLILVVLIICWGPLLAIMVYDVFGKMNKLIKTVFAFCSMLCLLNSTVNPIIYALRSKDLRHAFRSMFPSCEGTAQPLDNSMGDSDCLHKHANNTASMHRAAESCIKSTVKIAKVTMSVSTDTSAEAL

Legend:
brain's CB1R = molecular target: T1, brain's CB1R (Mus musculus, UniProt P47746); assay: Catalepsy test (bar test, WIN-55,212-induced); format: in vivo, mice
T1 construct: from tissue; host or cells: brain of living C57Bl/6JHsd mice (in vivo)

brain's CB1Rs = molecular target: T2, brain's CB1Rs (Mus musculus, UniProt P47746); assay: Acute food and water intake; format: in vivo, mice
T2 construct: from tissue; host or cells: brain of living C57Bl/6JHsd mice (in vivo)

Cc1c(C(=O)NN2CCCCC2)nn(-c2ccc(Cl)cc2Cl)c1-c1ccc(Cl)cc1 [free rimonabant, N-(piperidin-1-yl)-5-(4-chlorophenyl)-1-(2,4-dichlorophenyl)-4-methyl-1H-pyrazole-3-carboxamide hydrochloride]
inhibition of WIN-55,212 (3 mg/kg, ip)-induced catalepsy (brain's CB1R; 1 mg/kg ip): inhibited | inhibition of WIN-55,212 (3 mg/kg, ip)-induced catalepsy (brain's CB1R; 10 mg/kg ip): inhibited | acute food and water intakes (brain's CB1Rs; 1 mg/kg ip): but not | acute food and water intakes (brain's CB1Rs; 10 mg/kg ip): inhibited acute food and water intakes
